{"source": "patent US9522128B2", "about": "(FUNDACION PARA LA INVESTIGACION BIOMEDICA DEL HOSPITAL …, priority 2008, dated 2016)", "system": "primary cultures of proximal tubular cells (PTCs)", "experiment": "Cell growth dynamics in primary culture of proximal tubular cells", "conditions": "post hoc analysis; cyclosporin 1 μg/mL and 10 μg/mL; tacrolimus (FK-506)"}
{"substance": "Cyclosporin A", "values": [{"measurement": "day of culture from which cell growth is significantly decreased compared to control", "value": "≥ 8", "unit": "days"}]}
